Assay [1] has as its target T1, Dipeptidyl peptidase 4 (Homo sapiens, UniProt P27487). As to the kind of experiment: Inhibition of DPP-4 (unknown origin) assessed as inhibition of endomorphin-1 degradation after 30 min. An outline of the steps: (§1)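 Purified commercial DPP IV (0.002 mg protein/ml) incubated with endomorphin and inhibitor, each from 1 mM solutions in 50 mM Tris–HCl pH 7.4, at 37°C for 0, 7.5, 15, 22.5 and 30 min. Stopped on ice with 1 M HCl, centrifuged. Rate constant k from linear regression of ln(A/A0) of peptide peak area versus time; t1/2 = ln2/k. Three independent experiments in duplicate.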

Protein sequences, listed by entry. Tags and fused reporters are not part of them.
UniProt P27487, whole entry: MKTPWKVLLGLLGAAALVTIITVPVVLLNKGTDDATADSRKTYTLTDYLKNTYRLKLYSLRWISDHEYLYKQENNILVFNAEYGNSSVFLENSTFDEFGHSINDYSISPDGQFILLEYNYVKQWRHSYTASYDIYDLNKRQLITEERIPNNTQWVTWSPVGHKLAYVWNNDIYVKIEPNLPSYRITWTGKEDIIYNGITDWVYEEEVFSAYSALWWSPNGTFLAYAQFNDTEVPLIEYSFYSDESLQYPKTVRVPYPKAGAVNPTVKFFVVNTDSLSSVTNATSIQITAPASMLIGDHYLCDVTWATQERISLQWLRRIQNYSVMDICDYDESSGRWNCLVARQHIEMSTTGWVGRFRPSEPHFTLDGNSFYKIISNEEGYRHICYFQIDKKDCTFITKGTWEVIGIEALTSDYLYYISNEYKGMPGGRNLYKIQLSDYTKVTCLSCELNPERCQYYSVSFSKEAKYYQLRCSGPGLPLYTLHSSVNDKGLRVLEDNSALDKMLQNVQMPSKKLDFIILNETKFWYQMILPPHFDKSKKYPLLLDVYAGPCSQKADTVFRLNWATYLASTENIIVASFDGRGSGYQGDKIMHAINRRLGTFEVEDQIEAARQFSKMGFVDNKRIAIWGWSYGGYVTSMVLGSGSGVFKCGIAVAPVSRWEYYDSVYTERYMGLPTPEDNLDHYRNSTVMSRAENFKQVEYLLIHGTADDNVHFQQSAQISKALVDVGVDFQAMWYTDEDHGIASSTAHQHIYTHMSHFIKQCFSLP

Assay [2] addresses T1, Dipeptidyl peptidase 4. Description: Inhibition of DPP-4 (unknown origin) assessed as inhibition of endomorphin-2 degradation after 30 min. An outline of the steps: as §1

The values below come from ChEMBL document CHEMBL3046736, “Kinetic studies of novel inhibitors of endomorphin degrading enzymes” (Med Chem Res, 2012).

Take `CC[C@H](C)[C@H](N)C(=O)N1CCC[C@H]1C(=O)N[C@H](C(=O)O)[C@@H](C)CC` [DIPROTIN A]: in assay [1], the Ki was 2200 nM and the inhibition stood at 96.8%. For the same compound, in assay [2], the Ki is 2200 nM and the inhibition is 97.1%.
